## Ab-14 light chain CDR variants: yeast mating affinities

From the AlphaSeq antibody data of Engelhart et al. 2022 (doi:10.1038/s41597-022-01779-4), copy in the FLAb collection.

All variants were tested on one target, the spike HR2 peptide PDVDLGDISGINAS (SARS-CoV-2).

Ab-14 is the parent antibody, in scFv form: VH, then three GGGGS repeats, then VL. The heavy chain is unchanged in all variants.
VH: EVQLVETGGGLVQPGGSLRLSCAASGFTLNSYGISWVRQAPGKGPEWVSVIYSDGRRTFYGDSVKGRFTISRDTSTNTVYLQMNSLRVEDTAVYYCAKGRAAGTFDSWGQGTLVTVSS
VL: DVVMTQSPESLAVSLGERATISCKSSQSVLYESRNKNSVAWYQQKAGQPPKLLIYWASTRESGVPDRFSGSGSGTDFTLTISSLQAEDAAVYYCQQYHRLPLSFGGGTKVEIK

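Phage display of a naive human antibody library on the peptide gave the parent. In library AAYL50, one, two or three CDR residues were substituted; doubles and triples were drawn at random. The assay is AlphaSeq: two haploid yeast populations carry antibody and antigen on their surface. The frequency of each diploid, read from paired DNA barcodes, reflects how well the two displayed proteins bind. A regression on co-assayed BCL2-family reference pairs converts the normalised counts of each replicate to an apparent Kd. Each pool was mated in three replicate cultures.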

Positions count from residue 1 of the parent VL; S25L puts L in place of S. Every variant below is changed at S25 of the VL (sequential numbering). Values are apparent Kd, the geometric mean of the replicates that gave a signal; lower means stronger binding. A pair that was not seen in any replicate is written "no signal"; this usually means weak binding, but a binder can also be missed. Background: pairings of library AAYL50 with three empty control strains gave a value in 18% of cases (median 15 µM, 5th percentile 970 nM). Values in that range, when seen in few replicates, are hard to tell from nonspecific mating.

- S25L/R34D/E61P: 1.6 nM (3 of 3 replicates)
- S25A/A40G/S103V: 370 µM (2 of 3 replicates)
- S25F/Q27G/V39K: 33 µM (2 of 3 replicates)
- S25Q/W56Q/S103Y: 1.8 nM (3 of 3 replicates)
- S25H/V29T/S103G: no signal (0 of 3 replicates)
- S25L/Q96C: 14 nM (3 of 3 replicates)
- S25I/H98R/S103K: 5.1 nM (3 of 3 replicates)
- S25W/S28R/Q95S: 260 nM (1 of 3 replicates)
- S25N/V29F/L100A: no signal (0 of 3 replicates)
- S25C/Q96T/H98A: 20 nM (3 of 3 replicates)
- S25I/Y31H/V39I: 680 pM (3 of 3 replicates)
- S25R/H98W/L100F: 170 nM (3 of 3 replicates)
- S25I/V29D/R99V: 1.2 nM (3 of 3 replicates)
- S25M/K36A/A40Q: 58 µM (1 of 3 replicates)
- S25N/K36G/A40N: 32 µM (2 of 3 replicates)
- S25F/T59F/Q96G: 30 nM (3 of 3 replicates)
- S25C/S26H/N35C: 9.8 nM (3 of 3 replicates)
- S25C/L30G/T59W: no signal (0 of 3 replicates)
- S25L/A40R/S62I: 7.8 µM (1 of 3 replicates)
- S25L/S26D/Y31H: 1.1 nM (3 of 3 replicates)
- S25N/Y97S: no signal (0 of 3 replicates)
- S25R/R34N/T59V: 510 nM (3 of 3 replicates)
- S25Q/W56K/T59F: 63 nM (3 of 3 replicates)
- S25R/L100T/L102D: 2.1 µM (3 of 3 replicates)
- S25D/S26R/S28E: 11 nM (3 of 3 replicates)
- S25P/S38Y/A57H: no signal (0 of 3 replicates)
- S25C/L102T/S103L: 310 nM (3 of 3 replicates)
- S25N/S28L/S33E: 300 nM (1 of 3 replicates)
- S25Q/N37Y: 3.8 nM (3 of 3 replicates)
- S25Q/K36D/H98C: 5.3 nM (3 of 3 replicates)
- S25L/A57L/R60L: 210 µM (1 of 3 replicates)
- S25V/V29Y/S33V: 29 nM (3 of 3 replicates)
- S25H/E32F/A40V: no signal (0 of 3 replicates)
- S25I/S58V/S103D: 4.0 nM (3 of 3 replicates)
- S25L/N35K/Y97C: no signal (0 of 3 replicates)
- S25F/V39P/E61M: 1.6 µM (1 of 3 replicates)
- K24T/S25F/S26E: 1.3 nM (3 of 3 replicates)
- S25M/T59V/R99V: 8.2 nM (3 of 3 replicates)
- S25T/H98I/P101L: 3.1 nM (3 of 3 replicates)
- S25V/Q27G: 1.1 nM (3 of 3 replicates)
- S25M/S62M: 740 pM (3 of 3 replicates)
- S25W/N37G/R99T: 88 nM (3 of 3 replicates)
- S25P/S26V/E61R: 670 nM (1 of 3 replicates)
- S25T/A57L/L102Y: 240 nM (3 of 3 replicates)
- S25L/N37Q: no signal (0 of 3 replicates)
- S25Y/S38V/P101I: no signal (0 of 3 replicates)
- S25T/E32D/S38N: 610 pM (3 of 3 replicates)
- S25Y/N35W: 100 nM (3 of 3 replicates)
- S25V/Y31K/A57L: 12 nM (3 of 3 replicates)

For reference, 6 entries of the list once more:

changes	Kd (apparent)	detected
S25C/L30G/T59W	no signal	0/3
S25Q/W56Q/S103Y	1.8 nM	3/3
S25T/A57L/L102Y	240 nM	3/3
S25L/S26D/Y31H	1.1 nM	3/3
S25Q/K36D/H98C	5.3 nM	3/3
S25V/Y31K/A57L	12 nM	3/3